Measurements: patent US7198811B2, “Compositions for the preservation of fruits and vegetables” (University of Guelph, priority 2002, dated 2007)

Tested on: Vista Cherries
Test: Postharvest dips of compositions or individual components on Vista cherries
Type: in vivo
Conditions: dipped 2.5 min, concentration as printed per treatment; stored 4° C. in air

Structure (SMILES): Cc1c(C)c2c(c(C)c1O)CC[C@@](C)(CCC[C@H](C)CCC[C@H](C)CCCC(C)C)O2 [α-tocopherol]
- Soluble Solids (%) 2 weeks: 16.1%
